Key:
[1] = Equilibrium surface tension, Kruss K-12 tensiometer with platinum Wilhelmy plate; format: physicochemical; details: 25±1° C.
Method: Equilibrium surface tensions were determined using a Kruss K-12 tensiometer with a platinum Wilhelmy plate, maintaining the temperature at 25±1° C. by means of a constant temperature circulating bath.

[2] = Dynamic surface tension, maximum bubble pressure method; format: physicochemical
Method: Solutions in distilled and deionized water of the surfactants of the invention were prepared. […] In a practical sense, high surface creation rates refer to rapid processes such as a spray or roller-applied coating, a high speed printing operation, or the rapid application of an agricultural product or a cleaner.

EST (0.01 WT %, mN/m) ([1]; 0.01 wt % in water): 30 mN/m
EST (0.1 WT %, mN/m) ([1]; 0.1 wt % in water): 27 mN/m
EST (1.0 WT %, mN/m) ([1]; 1.0 wt % in water): 27 mN/m
DST (0.1 WT %, mN/m) 0.1 b/s ([2]; 0.1 wt % in distilled and deionized water, 0.1 bubbles/sec): 31 mN/m
DST (0.1 WT %, mN/m) 10 b/s ([2]; 0.1 wt % in distilled and deionized water, 10 bubbles/sec): 70 mN/m
DST (0.5 WT %, mN/m) 0.1 b/s ([2]; 0.5 wt % in distilled and deionized water, 0.1 bubbles/sec): 38 mN/m
DST (0.5 WT %, mN/m) 10 b/s ([2]; 0.5 wt % in distilled and deionized water, 10 bubbles/sec): 62 mN/m
Substance: N,N′-dioctyl-N,N′-bis(1-deoxyglucityl)ethylenediamine [DODGEDA]

Reference: patent US20060013780A1, “N,N'-dialkyl derivatives of polyhydroxyalkyl alkylenediamines” (priority 2004, published 2006)
